Columns and labels:
Test in all cases: MST
NM23-H2 D54A = NM23-H2 D54A (UniProt P22392 1-152, D54A)
NM23-H2 wild-type = NM23-H2 wild-type (UniProt P22392 1-152)
NM23-H2 H118F = NM23-H2 H118F (UniProt P22392 1-152, H118F)

Protein sequences, listed by entry. Tags and fused reporters are not part of them.
UniProt P22392, whole entry D54A: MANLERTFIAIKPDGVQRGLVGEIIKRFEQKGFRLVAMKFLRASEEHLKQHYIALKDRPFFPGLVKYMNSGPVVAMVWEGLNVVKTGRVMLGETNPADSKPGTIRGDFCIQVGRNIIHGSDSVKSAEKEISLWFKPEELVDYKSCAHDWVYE
UniProt P22392, whole entry: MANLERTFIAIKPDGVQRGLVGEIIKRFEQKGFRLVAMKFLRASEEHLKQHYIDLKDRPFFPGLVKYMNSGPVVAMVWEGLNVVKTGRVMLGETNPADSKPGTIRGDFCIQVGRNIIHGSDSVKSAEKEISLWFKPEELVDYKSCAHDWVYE
UniProt P22392, whole entry H118F: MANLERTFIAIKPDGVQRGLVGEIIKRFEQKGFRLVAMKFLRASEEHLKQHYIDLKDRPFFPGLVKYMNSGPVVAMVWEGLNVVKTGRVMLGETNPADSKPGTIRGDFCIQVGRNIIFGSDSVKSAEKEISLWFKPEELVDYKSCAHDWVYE

Q: TGGGGAGGGTGGGGAGGGTGGGGAAGG (ssDNA) [c-MYC Pu27 (FAM)] was tested. Which Kd (NM23-H2 D54A) did it give?
A: 7800 ± 630 nM

Q: And the Kd (NM23-H2 wild-type)?
A: 140 ± 10 nM

Q: And the Kd (NM23-H2 H118F)?
A: 700 ± 29 nM
